# scFv variants of Ab-14 (heavy chain) against a SARS-CoV-2 spike peptide

Source: Engelhart et al. 2022 (doi:10.1038/s41597-022-01779-4), MIT Lincoln Laboratory and A-Alpha Bio; data file from the FLAb repository.

Binding partner: SARS-CoV-2 spike HR2 peptide, sequence PDVDLGDISGINAS.

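The parent was found by panning a naive human phage display library on the peptide. AAYL49 was designed without a model: most single CDR substitutions and a random sample of double and triple ones. The assay is AlphaSeq: two haploid yeast populations carry antibody and antigen on their surface. Pairs that bind mate more often; barcode pairs of the diploids are counted by sequencing. Read counts were normalised to the haploid input and turned into Kd by a linear fit to BCL2-family pairs of known affinity, for each replicate. Each pool was mated in three replicate cultures.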

The variants keep the light chain, the linker and the frameworks of Ab-14 (scFv order VH, the linker GGGGSGGGGSGGGGS, VL).
VH: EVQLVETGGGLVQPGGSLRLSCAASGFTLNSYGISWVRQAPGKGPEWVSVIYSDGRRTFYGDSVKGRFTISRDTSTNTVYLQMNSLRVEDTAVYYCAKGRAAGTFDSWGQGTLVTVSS
VL: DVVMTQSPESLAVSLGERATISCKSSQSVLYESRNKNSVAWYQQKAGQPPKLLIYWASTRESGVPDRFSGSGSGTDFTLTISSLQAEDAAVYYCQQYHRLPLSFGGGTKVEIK

Positions count from residue 1 of the parent VH; D54A puts A in place of D. Scale: log10 of Kd in nM, estimated from mating counts; low values are strong binders. Replicates are averaged; those with no signal do not enter the mean. Where no diploid with the target was found in that replicate, the entry reads "nd": below detection, most likely a poor binder, though not proof of it. In this assay the parent's reference entry averaged 0.65; its copy inside this library read 4.11 (one replicate of three).

For D54A T58Y V64C, the assay gave nd, nd, nd (controls 0 of 9).
For I34D Y52V K65I, the assay gave nd, nd, nd (controls 1 of 9).
For I51D A101D S107P, the assay gave nd, 4.14, nd (controls 1 of 9).
For T28G V50F F105P, the assay gave nd, nd, nd (controls 0 of 9).
For T28A G55M G61F, the assay gave nd, nd, nd (controls 0 of 9).
For G33Q S35W G99C, the assay gave 4.24, nd, nd (controls 1 of 9).
For R56C Y60S D62N, the assay gave nd, nd, 4.73 (controls 2 of 9).
For F27L T28V A102G, the assay gave 0.66, 0.77, 0.61 (mean 0.68; controls 1 of 9).
For Y52E G55Q F59S, the assay gave nd, nd, nd (controls 0 of 9).
For D54G K65S S107G, the assay gave 3.91, nd, nd (controls 0 of 9).
For F27Y S31E D106L, the assay gave 2.56, 2.66, 2.77 (mean 2.66; controls 4 of 9).
For L29T R56T Y60H, the assay gave nd, nd, nd (controls 2 of 9).
For N30W S63Q V64C, the assay gave 3.21, 3.32, 3.36 (mean 3.30; controls 4 of 9).
For S63H G103T D106F, the assay gave nd, nd, nd (controls 0 of 9).
For F27N S35I D62A, the assay gave 4.16, 4.75, nd (mean 4.45; controls 1 of 9).
For F27L S35G K65D, the assay gave nd, nd, nd (controls 0 of 9).
For R57H T58N A102I, the assay gave nd, nd, nd (controls 0 of 9).
For L29Q I51N D62E, the assay gave nd, nd, nd (controls 0 of 9).
For G26C S53N G55T, the assay gave nd, nd, nd (controls 2 of 9).
For G26K T28W, the assay gave nd, nd, 2.67 (controls 0 of 9).
For R56S R100A A102E, the assay gave nd, nd, nd (controls 1 of 9).
For T28W I34R G99N, the assay gave 3.33, 3.36, nd (mean 3.35; controls 4 of 9).
For T28A V64A, the assay gave 5.05, 4.78, nd (mean 4.91; controls 1 of 9).
For I51Y G61E T104E, the assay gave 4.22, nd, nd (controls 3 of 9).
For G61V D62S F105G, the assay gave nd, nd, nd (controls 1 of 9).
For N30Y D62Y A102M, the assay gave nd, nd, nd (controls 0 of 9).
For G61N A101P D106K, the assay gave 3.17, 2.80, 3.43 (mean 3.13; controls 3 of 9).
For S35I R57K G103Y, the assay gave nd, nd, nd (controls 0 of 9).
For S53E D62H T104K, the assay gave nd, nd, nd (controls 0 of 9).
For R56G T58M G61E, the assay gave 2.85, 2.75, 3.11 (mean 2.90; controls 1 of 9).
For S31E S53M G55Q, the assay gave nd, 2.64, nd (controls 0 of 9).
For G55Y F59S V64N, the assay gave nd, nd, nd (controls 0 of 9).
For Y32D K65D A101N, the assay gave nd, nd, nd (controls 0 of 9).
For G26L Y32T F59N, the assay gave nd, nd, nd (controls 0 of 9).
For T28Q Y32P S107H, the assay gave nd, nd, 5.27 (controls 2 of 9).
For S35Y I51F G99H, the assay gave nd, 4.07, 6.05 (mean 5.06; controls 2 of 9).
For V50I K65P, the assay gave nd, 4.10, nd (controls 0 of 9).
For N30Y I34M G55C, the assay gave nd, nd, nd (controls 1 of 9).
For R57N S63M A102H, the assay gave nd, 5.18, nd (controls 1 of 9).
For L29E T104D S107D, the assay gave nd, 5.16, 4.88 (mean 5.02; controls 3 of 9).
For G55K G103P F105T, the assay gave nd, nd, nd (controls 0 of 9).
For R56P V64D A102G, the assay gave nd, nd, nd (controls 0 of 9).
For R57G G99H R100E, the assay gave 3.99, nd, 4.79 (mean 4.39; controls 2 of 9).
For S35A V64S, the assay gave 3.79, 3.10, 3.88 (mean 3.59; controls 5 of 9).

A selection of 6 entries from above:

{"changes": "R56G T58M G61E", "log10 Kd, replicates": "2.85, 2.75, 3.11", "log10 Kd (nM), mean": "2.90", "signal with controls": "1 of 9"}
{"changes": "R56S R100A A102E", "log10 Kd, replicates": "nd, nd, nd", "log10 Kd (nM), mean": "nd", "signal with controls": "1 of 9"}
{"changes": "D54G K65S S107G", "log10 Kd, replicates": "3.91, nd, nd", "log10 Kd (nM), mean": "3.91", "signal with controls": "0 of 9"}
{"changes": "T28W I34R G99N", "log10 Kd, replicates": "3.33, 3.36, nd", "log10 Kd (nM), mean": "3.35", "signal with controls": "4 of 9"}
{"changes": "F27L S35G K65D", "log10 Kd, replicates": "nd, nd, nd", "log10 Kd (nM), mean": "nd", "signal with controls": "0 of 9"}
{"changes": "S35A V64S", "log10 Kd, replicates": "3.79, 3.10, 3.88", "log10 Kd (nM), mean": "3.59", "signal with controls": "5 of 9"}

Nonspecific signal, from three strains lacking the peptide, appeared in 15% of pairings of library AAYL49, centred on 4.06 (5% of these signals below 2.83); values are not corrected for it. Also given: how often the same scFv was detected with the empty control strains.